High-throughput results deposited in PubChem by Broad Institute.
CAL PDZ FP-1: untagged CAL PDZ binding inhibitors, primary screen, biochemical, fluorescence polarization, HTS; hit rate 0.92% among 300,000; purified CAL PDZ, TMR-peptide fluorescence polarization, 1 h; inhibition, % at 24.9 µM; Golgi-associated PDZ and coiled-coil motif-containing protein (Homo sapiens), Q9HD26; AID 602252, 2012;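 active = mean inhibition of at least 30% with at least half of replicates also reaching 30%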;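 note: 0% = DMSO neutral control and 100% = excess unlabeled competitor peptide PRC23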
dFosB activator: activators of delta FosB homodimer, primary screen, biochemical, fluorescence polarization, TAMRA-CDK5 oligo, single point; activation, % at 25 µM; Protein FosB (Mus musculus), P13346; hit rate 0.99% among 340,000; purified delta FosB; percent of positive-control signal above neutral wells;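 active = mean activation above about 17%, with every replicate also reaching it, limit read from the data, passing the limit was not always enough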
DYRK1A inh: rat Dyrk1A kinase inhibitors, primary screen, biochemical, single point, plate reader; ADP-Glo luminescence, NFATc1 peptide; inhibition, % at 12.5 µM; hit rate 0.43% among 310,000; in the data active = inhibition above about 50%;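 note: plate controls were vehicle with enzyme for no effect and no enzyme for full effect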
CDK5 inh: inhibitors of human CDK5/p35 kinase, primary screen, biochemical, single concentration; Cyclin-dependent kinase 5 (Homo sapiens) + Cyclin-dependent kinase 5 activator 1 (Homo …; hit rate 0.01% among 330,000; AID 488839, 2010; Recombinant CDK5/p35, ADP-Glo luminescence, 60 min; inhibition, % at 10 µM;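 active = highest replicate inhibition of at least 50% and at least 75% of replicates reaching 50%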;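 note: plate controls were DMSO neutral control for no effect and GW8510 at 10 µM for full effect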
Yeast UUG start-1: modulators of start codon recognition fidelity in yeast; AID 602363; hit rate 0.13% among 350,000; activity score, % at 18.7 µM; S. cerevisiae UUG-firefly luciferase reporter, luminescence/redox ratio;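 active = replicate mean at a twofold rise or more, about +100% in these data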;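 note: firefly luciferase made from a UUG start codon reports start codon fidelity; reporter light over untreated wells divided by growth signal over untreated wells; some hits fall short of that in this replicate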
CAL PDZ FP-2: CAL PDZ peptide-binding inhibitors, primary screen, biochemical, fluorescence polarization, Cer-tagged CAL PDZ, HTS; Golgi-associated PDZ and coiled-coil motif-containing protein (Homo sapiens), Q9HD26; purified CAL PDZ, TMR-peptide fluorescence polarization, 1 h; inhibition, % at 20 µM; hit rate 0.02% among 330,000; AID 504414, 2011;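 active = highest replicate inhibition of at least 40%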;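 note: plate controls were DMSO neutral control wells for no effect and unlabeled competitor peptide control wells for full effect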
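Read-out basis: mP drop reported as inhibition | Assay system: Tagged CAL PDZ protein CerCALP, purified | Benchmarks: Unlabelled peptide for full inhibition, DMSO wells as neutral | Schedule: 1 h incubation at room temperature before polarization reading | Buffer or medium: Sodium phosphate/NaCl buffer pH 7.4 with TCEP, IgG, Thesit | Doses: Single point, 20 µM | Measured by: Fluorescence polarization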
Dyrk1A artifact: ADP-Glo luciferase interference without Dyrk1A, dose response, artefact control for Dyrk1A inhibitor project, biochemical, luminescence, cherry-pick, set 02. shares compounds with DYRK1A inh. ADP-Glo luciferase artifact assay, no Dyrk1A. AC50, µM (highest dose often 12 µM), for the others: at the top dose activity change, negative = inhibition. 1,300 tested, under 10 active;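 active = fitted half-maximal dose AC50 no more than ten times the top valid tested dose, with luminescence dropping as dose rises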
Yeast UUG start-2: enhancers of UUG start codon usage in yeast, dose response, S. cerevisiae, UUG firefly luciferase, cherry-pick, set 2 | luminescence, 4 h; 100% means double the DMSO signal | 540 tested, under 10 active | AID 652061, 2013 | shares compounds with Yeast UUG start-1 | activation, % at 38 µM;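 active = signal increase whose fitted curve reaches an absolute level of 40 at a concentration under 10 µM; inactive = activity opposite to the expected increase, or the rest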
Numbers without * were called inactive; . = no result given; ! = repeats disagree. Most compounds without a hit are left out; they make up all but 1.7% or so of the library.

SMILES	CAL PDZ FP-1	dFosB activator	DYRK1A inh	CDK5 inh	Yeast UUG start-1	CAL PDZ FP-2	Dyrk1A artifact	others
Cc1nc2c(=O)n(C)c(=O)nc-2n(C)n1	-6	-6	76*	3	.	0	9%
COC(=O)[C@@H]1[C@@H](CO)[C@@H]2Cn3c(ccc(C4=CCCC4)c3=O)[C@H]1N2CC1CCCCC1	.	.	.	.	16	.	.
O=C(Cc1ccncc1)N1CCCCN2[C@H](C1)[C@@H](c1ccc(C#CC3(O)CCCC3)cc1)[C@@H]2CO	.	.	.	.	8	.	.
COC(=O)[C@@H]1[C@@H](CO)[C@@H]2Cn3c(ccc(-c4ccccc4F)c3=O)[C@H]1N2C(=O)C1CCC1	.	.	.	.	-5	.	.
O=C(O)CC1OCC=C2CN3CCC45c6ccccc6NC4C1C2CC35 (stereo not given)	-4	10	3	-1	-22	-1	.
O=C(O)CC1OCC=C2CN3CCC45C6=CC(=O)C(=O)C([N+](=O)[O-])=C6NC4C1C2CC35 (stereo not given)	-3	-2	56*	1	-14	1	10%
N#Cc1c(Br)n(C2OC(CO)C(O)C2O)c2ncnc(N)c12 (stereo not given)	-10	-4	75*	14	.	-1	7%
NC(=O)c1c(Br)n(C2OC(CO)C(O)C2O)c2ncnc(N)c12 (stereo not given)	0	1	65*	7	.	0	7%
N#Cc1cn(C2OC(CO)C(O)C2O)c2ncnc(N)c12 (stereo not given)	-2	1	2	1	.	0	.
NC(=O)c1cn(C2OC(CO)C(O)C2O)c2ncnc(N)c12 (stereo not given)	2	-4	88*!	42	-4	1	7%
O=C(Cc1ccccc1)N1CCCCN2[C@@H](CO)[C@@H](c3ccc(-c4ccccc4)cc3)[C@@H]2C1	.	.	.	.	11	.	.
O=C(N/N=C/c1c(O)n(-c2ccccc2)c(=S)[nH]c1=O)c1ccccc1	.	9	4	1	182*	0	.	Yeast UUG start-2=15
Cc1cccc(OCC(O)CN2CC2)c1 (stereo not given)	.	.	.	.	143*	.	.	Yeast UUG start-2=6
CC(=O)c1cccc(OCC(O)CN2CC=C(c3ccccc3)CC2)c1 (stereo not given)	-2	-3	-9	-1	10	-1	.
COc1ccccc1CN1CCCC(C(=O)c2ccccc2OC)C1 (stereo not given)	2	-1	-3	2	active	7	.	Yeast UUG start-2=11
O=C(Cc1ccccn1)N1CCCCN2[C@H](C1)[C@@H](c1ccc(-c3ccccc3F)cc1)[C@@H]2CO	.	.	.	.	-1	.	.
O=C(Cc1cccnc1)N1CCCCN2[C@H](CO)[C@@H](c3ccc(/C=C/c4ccccc4)cc3)[C@H]2C1	.	.	.	.	-14	.	.

Quoted at random: 3 records from the list.
SMILES	CAL PDZ FP-1	dFosB activator	DYRK1A inh	CDK5 inh	Yeast UUG start-1	CAL PDZ FP-2	Dyrk1A artifact	others
COC(=O)[C@@H]1[C@@H](CO)[C@@H]2Cn3c(ccc(-c4ccccc4F)c3=O)[C@H]1N2C(=O)C1CCC1	.	.	.	.	-5	.	.
N#Cc1c(Br)n(C2OC(CO)C(O)C2O)c2ncnc(N)c12 (stereo not given)	-10	-4	75*	14	.	-1	7%
O=C(N/N=C/c1c(O)n(-c2ccccc2)c(=S)[nH]c1=O)c1ccccc1	.	9	4	1	182*	0	.	Yeast UUG start-2=15
